Results as given in ChEMBL document CHEMBL4052581, “Expanding the Cancer Arsenal with Targeted Therapies: Disarmament of the Antiapoptotic Bcl-2 Proteins by Small Molecules” (J Med Chem, 2017).

Chains of the proteins cited; added tags and fusions are not shown.
UniProt Q07820, whole entry: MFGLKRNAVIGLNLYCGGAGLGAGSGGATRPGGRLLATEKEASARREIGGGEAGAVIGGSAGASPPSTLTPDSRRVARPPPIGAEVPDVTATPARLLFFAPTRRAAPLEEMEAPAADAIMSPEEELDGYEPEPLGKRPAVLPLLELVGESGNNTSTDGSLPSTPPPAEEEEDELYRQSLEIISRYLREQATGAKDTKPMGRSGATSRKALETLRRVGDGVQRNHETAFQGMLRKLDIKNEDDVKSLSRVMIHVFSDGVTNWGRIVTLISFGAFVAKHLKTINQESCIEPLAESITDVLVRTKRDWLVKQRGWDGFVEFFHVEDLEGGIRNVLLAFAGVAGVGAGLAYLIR

Target: Induced myeloid leukemia cell differentiation protein Mcl-1 (Homo sapiens, UniProt Q07820)
Experiment: Binding affinity to Mcl-1 (unknown origin)

Ki: > 20 µM
Compound: CN(C)CC[C@H](CSc1ccccc1)Nc1ccc(S(=O)(=O)NC(=O)c2ccc(N3CCN(Cc4ccccc4-c4ccc(Cl)cc4)CC3)cc2)cc1[N+](=O)[O-] [ABT 737]
